Results published in US9828368B2 (MERCK SHARP & DOHME CORP., priority 2013, dated 2017).

The chains behind the UniProt entries cited, without tags or fusion partners.
UniProt O43614, whole entry: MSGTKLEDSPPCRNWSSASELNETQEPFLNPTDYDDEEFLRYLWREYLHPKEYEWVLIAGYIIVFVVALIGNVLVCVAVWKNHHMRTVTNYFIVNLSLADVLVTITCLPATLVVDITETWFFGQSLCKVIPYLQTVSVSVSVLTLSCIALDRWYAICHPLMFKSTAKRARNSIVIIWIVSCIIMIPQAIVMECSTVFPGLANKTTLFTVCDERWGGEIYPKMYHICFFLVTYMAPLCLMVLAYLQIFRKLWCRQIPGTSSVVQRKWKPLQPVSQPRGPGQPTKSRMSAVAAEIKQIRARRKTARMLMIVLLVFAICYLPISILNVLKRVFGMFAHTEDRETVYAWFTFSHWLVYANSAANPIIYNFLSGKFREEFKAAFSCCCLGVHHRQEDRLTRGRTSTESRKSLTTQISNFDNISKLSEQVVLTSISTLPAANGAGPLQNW

Molecular target: human orexin-2 receptor (Homo sapiens (Human), UniProt O43614)
Experiment: FLIPR Ca2+ flux assay, hOX2R
Type: cell-based
Details: CHO cells expressing human orexin-2 receptor; agonist 70 pM Ala-6,12 orexin-A
Description: In a typical experiment the OX1 and OX2 receptor antagonistic activity of the compounds of the present invention was determined in accordance with the following experimental method. For intracellular calcium measurements, Chinese hamster ovary (CHO) cells expressing the rat orexin-1 receptor or the human orexin-2 receptor, are grown in Iscove's modified DMEM containing 2 mM L-glutamine, […], 1% hypoxanthine-thymidine supplement, 100 U/ml penicillin, 100 μg/ml streptomycin and 10% heat-inactivated fetal calf serum (FCS). The cells are seeded at 20,000 cells/well into Becton-Dickinson black 384-well clear bottom sterile plates coated with poly-D-lysine. All reagents were from GIBCO-Invitrogen Corp. The seeded plates are incubated overnight at 37° C. and 5% CO2. […] Within the Fluorescent Imaging Plate Reader (FLIPR, Molecular Devices), test compounds are added to the plate in a volume of 25 μl, incubated for 5 min and finally 25 μl of agonist is added. Fluorescence is measured for each well at 1 second intervals for 5 minutes and the height of each fluorescence peak is compared to the height of the fluorescence peak induced by 70 pM Ala-6,12 orexin-A with buffer in place of antagonist. […] The intrinsic orexin receptor antagonist activity of a compound which may be used in the present invention may be determined by these assays.

- IC50: 0.016 µM
SMILES: CC[C@](C)(O)c1nc([C@@H]2CC[C@@H](C)N(C(=O)c3ccsc3-n3nccn3)C2)oc1C [Example 49, (2-(2H-1,2,3-triazol-2-yl)thiophen-3-yl)((2R,5R)-5-(4-((S)-2-hydroxybutan-2-yl)-5-methyloxazol-2-yl)-2-methylpiperidin-1-yl)methanone]
